For 1 molecule, IC50 results are on record in ChEMBL document CHEMBL3351265, “Astemizole arrests the proliferation of cancer cells by disrupting the EZH2-EED interaction of polycomb repressive complex 2” (J Med Chem, 2014).

Sequences of proteins named here, by UniProt entry; tags and fusion partners are left off.
UniProt O75530, whole entry: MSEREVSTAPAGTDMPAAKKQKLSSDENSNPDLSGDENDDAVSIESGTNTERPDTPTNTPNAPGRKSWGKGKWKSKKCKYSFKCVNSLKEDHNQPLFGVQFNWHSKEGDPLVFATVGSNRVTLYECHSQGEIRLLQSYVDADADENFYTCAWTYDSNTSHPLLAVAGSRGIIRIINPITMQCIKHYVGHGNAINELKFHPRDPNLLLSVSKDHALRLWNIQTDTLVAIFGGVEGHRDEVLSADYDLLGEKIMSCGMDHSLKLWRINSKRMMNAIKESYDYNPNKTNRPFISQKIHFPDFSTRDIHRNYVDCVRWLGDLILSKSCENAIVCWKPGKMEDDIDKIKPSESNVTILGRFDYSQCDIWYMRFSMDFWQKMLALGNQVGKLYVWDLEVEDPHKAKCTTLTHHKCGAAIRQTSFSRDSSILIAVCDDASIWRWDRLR

For the test, the target named is Polycomb protein EED (Homo sapiens, UniProt O75530). In words: Displacement of FITC-labeled EZH2 peptide from recombinant N-terminal 6His-tagged EED (residues 81 to 441) (unknown origin) expressed in Escherichia coli strain BL21 (DE3) after 1 hr by fluorescence polarization assay. (Polarisation of emitted light reports the rotation of a fluorescent probe.)

On to `COc1ccc(CCN2CCC(Nc3nc4ccccc4n3Cc3ccc(F)cc3)CC2)cc1` [ASTEMIZOLE], for which the half-maximal inhibitory concentration (IC50) was 93.8 µM.

In general, IC50 refers to the concentration at which inhibition is half-maximal.
